Consider one substance from PMC8720082.

The series concerns N=C(N)NCCC[C@H](N)C(=O)O. Kind of series: purified protein. The note with it: 100 mM MES/KOH pH 6.5, 5 mM MgCl2, 37 °C, 0.5 to 20 mM L-arginine.

For “SpyADI (native, unmodified) (Streptococcus pyogenes NZ131)”, the Michaelis-Menten constant (Km) (in general, the concentration of substrate that gives half-maximal velocity) worked out at 940 ± 300 µM.
